{"source": "PubChem BioAssay AID720519", "about": "(National Center for Advancing Translational Sciences (NCATS), 2013)", "test": "qHTS for Inhibitors of Cell Surface uPA Generation: Confirmatory Assay for Cherry-picked Compounds; also: 0% is about no effect", "conditions": "cell surface uPA activity generation, qHTS confirmation; at 115 µM (top of the series)", "excerpt": "The overall objective of this project is to perform a quantitative high throughput screen (qHTS) to identify novel compounds that inhibit the generation of cell surface urokinase activity. The urokinase plasminogen activator (uPA) is one of the two primary endogenous systems that mediate plasminogen activation into plasmin. Members of this system, including uPA and its receptor (uPAR), are overexpressed in several malignant tumors. This system plays a major role in adhesion, migration, invasion and metastasis of cancer cells. Small molecule inhibitors of the uPA system will serve as probes to understand the molecular mechanisms of the uPA cascade and better understanding the micro-environmental circumstances that facilitate the activation of plasminogen by uPA, and finally may provide novel candidate agents for anticancer drug therapy.\n[…] Activation of cell viability (increase in luminescence signal) due to inhibition of the cell surface uPA generation is the desired outcome of this assay. […]\nCultured RAW 264.7 were dispensed into 1536-well clear bottom, white walled tissue culture plates at a density of 4000 cells/well and were incubated overnight (12-16 h) at 37 C in a 5% CO2 incubator. […] Three microliter of PerkinElmer ATPlite was then added to each well and luminescence was detected using the PerkinElmer ViewLux plate reader for a 5 sec exposure.", "note": "Only a part is listed here, and it is no random draw. Results filed as inconclusive are left out. Activity calls are given as the source filed them. Calls follow the shape of the dose curve; as a rule, active = well fitted activation curve with a large enough effect; inconclusive = small, poorly fitted or top-dose-only effect; inactive = flat fitted curve, though single readings scatter.", "data": [{"smiles": "CCN(CC)CCCOC(=O)C(O)(c1ccccc1)c1ccccc1", "values": [{"measurement": "inhibition", "result": "inactive: 6.02%"}]}]}
